# Source: patent publication US20250161419A1, “SERPIN PEPTIDES AND METHODS OF USING THE SAME” (SERPIN PHARMA, LLC, priority 2022, published 2025)
# Tests used:
# GFAP = test: Immunohistochemistry of L4 DRGs two days after PNL, GFAP (satellite cell activation); type: in vivo, mouse; settings: L4 DRG two days after PNL, vs vehicle
# Procedure: Neuropathic pain model: Mice (n=30) were randomly assigned to two different groups: SP163M (2 μg/g; s.c. 100 μl) and vehicle (H20 s.c. 100 μl). Mice were treated 1 h prior to partial nerve ligation (PNL) and then daily at least 1 h prior to behavior testing for 2 weeks. PNL studies were performed as previously disclosed^59 and adapted for mice.^57 Male mice were anesthetized with 3% isoflurane (Vetone, USA) in 1.5 L/min oxygen (Praxair, USA) and maintained with 2.5% isoflurane. An incision was made along the long axis of the femur. […] Filaments were presented in a consecutive fashion either ascending or descending using the up-down method as previously disclosed^60 and modified for mice.^57,61 The filament that caused paw withdrawal 50% of the time (the 50% PWT) was determined. […]
# Immunoblots of sciatic nerve: Sciatic nerves were harvested 2 days after PNL to identify early molecular and cellular changes. […] Nerves were lysed in RIPA buffer and equal amounts of protein (20 μg) from nerves lysates, as determined by BCA Protein Assay (Bio-Rad, Hercules, CA, USA), were subjected to 10% SDS-PAGE and electro-transferred to nitrocellulose membranes. […] Primary antibodies were detected with HRP-conjugated species-specific secondary antibodies (Cell Signaling Technology, Danvers, MA, USA; cat #7076S or 4S; 1:5000). […]
# phospho-Akt = test: Cell signaling analysis in PC12 cells, immunoblot of phospho-Akt; type: cell-based, rat; settings: SP163M 24 or 240 nM, RAP 150 nM pretreatment 15 min
# Procedure: Cell signaling analysis: Rat PC12 cells were purchased from ATCC (CRL-1721). PC12 cells were maintained in high glucose DMEM (Gibco, USA) containing 10% heat-inactivated FBS (Gibco, USA), 5% HyClone heat-inactivated horse serum (Cytiva, USA), penicillin (100 units/ml) and streptomycin ([…]) in 6-well plates that were pre-coated with 0.01 mg/ml type IV collagen (Sigma-Aldrich, St. Louis, MO, USA). Cells were transferred to serum-free medium (SFM) 4 h prior to adding effectors, and then treated with SP163M (2.4, 24 or 240 nM); EI-tPA (12 nM), NGF (0.36 nM), or vehicle (PBS) for 10 min. In some cases, cells were pre-incubated with the competitive antagonist of LRP1, GST-RAP (150 nM) for 15 min or electroporated using the Rat Neuron Nucleofector Amaxa Kit (Lonza Biosciences) and incubated with siRNA to silence LRP1 expression (siLRP1; M-094191-01-0010, Dharmacon) for 48 h. Control cells were transfected with non-targeting control (NTC) siRNA (NTC; D-001810-10-05, Dharmacon). […] Equal amounts of protein from cell lysates (20 μg), as determined by BCA Protein Assay (ThermoFisher Scientific, Waltham, MA, USA), were subjected to 10% SDS-PAGE and electro-transferred to nitrocellulose membranes. […]
smiles,measurement,setting,value
"CCCC[C@H](NC(=O)[C@H](CC(C)C)NC(=O)[C@H](Cc1ccccc1)NC(=O)[C@@H](NC(=O)[C@H](Cc1ccccc1)NC(=O)[C@@H]1CCCN1C(=O)[C@H](CCCCN)NC(=O)[C@H](CC(N)=O)NC(=O)[C@H](Cc1ccccc1)NC(=O)[C@H](CCCCN)NC(=O)[C@@H](NC(C)=O)C(C)C)C(C)C)C(=O)N[C@H](C(=O)N[C@@H](CCC(=O)O)C(=O)N[C@@H](CCC(N)=O)C(=O)N[C@@H](CC(N)=O)C(=O)N[C@H](C(=O)N[C@@H](CCCCN)C(N)=O)[C@@H](C)O)[C@@H](C)CC [SP163M, Ac-VKFNKPFVFLNIeIEQNTK-NH2]",decrease in GFAP levels in DRGs (quantification of immunohistochemistry),GFAP,6 fold
same,"activation of phospho-Akt after 10 min, with or without RAP",phospho-Akt,"activated Akt and EKR1/2 in PC12 cells after 10 min that was blocked by the addition of the 39 kDa LRP1 antagonist, RAP"
